{"source": "paper PMC7180491", "about": "“Synthesis and Biological Evaluation of Novel (thio)semicarbazone-Based Benzimidazoles as Antiviral Agents against Human Respiratory Viruses” (Molecules, 2020)"}
{"substance": "dextran sulfate MW 10,000 [DS-10,000, reference compound]", "values": [{"measurement": "CC50 Vero", "setting": "Vero cells", "value": ">100", "unit": "µg/mL"}, {"measurement": "CC50 Hep-2", "setting": "Hep-2 cells", "value": ">100", "unit": "µg/mL"}]}
